Measured values taken from PubChem BioAssay AID624291 (National Center for Advancing Translational Sciences (NCATS), 2012).
The list shows a part of the results, in another mix than the full data. Inconclusive results are not listed. Some structures show a salt or complex split into parts, the way the source records it. The source made the active and inactive calls. Calls follow the shape of the dose curve; as a rule, active = well fitted activation curve with a large enough effect; inconclusive = small, poorly fitted or top-dose-only effect; inactive = no such curve, though single readings can be large or run the other way.

assay: qHTS for Activators of Integrin-Mediated Alleviation for Muscular Dystrophy; conditions: alpha7betagal myoblasts, beta-gal FDG fluorescence, 48 h; series mostly up to 38.3 µM; activation: at the top concentration; also: nearly all actives have a fitted effect of over 60% in size;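 as to activation: 100% = response of the positive control SU9516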
Potency is read from the fitted curve at half-maximal effect.

Q: With `CCOC(=O)N1CCC(Nc2cccc(C)c2)CC1` as the compound, how does the “activation” value read?
A: inactive: 0%

Q: For `COc1cc(C(=O)NCC2(N(C)C)CCCCC2)ccc1OC(F)F`, which “activation” value is on record?
A: inactive: -12.4%

Q: For `CCOC(=O)N1CCC(Nc2ccc(F)cc2)CC1`, which “activation” value is on record?
A: inactive: -4.18%

Q: Which “activation” value does the source give for `COc1ccc(NC2CCN(CCc3ccccc3)CC2)c(OC)c1` here?
A: inactive: -8.11%

Q: With `CCCCOc1ccc(C(=O)NCC2(N3CCOCC3)CCCCC2)cc1` as the compound, how does the “activation” value read?
A: inactive: 0.714%

Q: With `O=P1(N(CCCl)CCCl)SCCCS1` as the compound, how does the “activation” value read?
A: inactive: -16%

Q: Which “activation” value does the source give for `O=C(NCC1(N2CCCCC2)CCCCC1)c1ccc(F)cc1` here?
A: inactive: 9.92%

Q: Which “activation” value does the source give for `CCOc1ccc(C)cc1CN(CCCl)CCCl` here?
A: inactive: -0.256%

Q: For `O=C1CCN(Cc2ccccc2)CC1`, which “activation” value is on record?
A: inactive: -1.71%

Q: Which “activation” value does the source give for `CCOC(=O)N1CCC(Nc2ccc(OC)cc2)CC1` here?
A: inactive: -29.5%

Q: With `O=C1C(O)=C([N+](=O)[O-])C(=O)C(O)=C1[N+](=O)[O-]` as the compound, how does the “activation” value read?
A: inactive: 18.9%

Q: For `N#CC1(Nc2ccccc2)CCN(Cc2ccccc2)CC1`, which “activation” value is on record?
A: inactive: 16.3%

Q: For `O=C(NCC1(N2CCCCC2)CCCCC1)c1ccc(Cl)s1`, which “activation” value is on record?
A: inactive: -23.6%

Q: Which “activation” value does the source give for `O=C(OC1CN2CCC1CC2)C1c2ccccc2Oc2ccccc21` (stereo not drawn) here?
A: inactive: -4.32%

Q: With `O=C(NCC1(N2CCOCC2)CCCCC1)c1cc2ccccc2o1` as the compound, how does the “activation” value read?
A: inactive: 21.5%

Q: For `Cc1cc(C)cc(N(C(=O)c2ccccc2)C2CCN(C(=O)OC(C)(C)C)CC2)c1`, which “activation” value is on record?
A: inactive: 18.5%

Q: Which “activation” value does the source give for `O=C(NCC1(N2CCCCC2)CCCCC1)c1ccc(Cl)nc1` here?
A: inactive: -11.2%

Q: With `Cc1cccc(NC2(C#N)CCN(Cc3ccccc3)CC2)c1` as the compound, how does the “activation” value read?
A: inactive: -25%

Q: With `CSc1ccccc1C(=O)NCC1(N2CCCCC2)CCCCC1` as the compound, how does the “activation” value read?
A: inactive: 10.7%

Q: For `O=C(NCC1(N2CCCCC2)CCCCC1)c1cccs1`, which “activation” value is on record?
A: inactive: -7.5%

Q: For `O=C(NCC1(N2CCCCC2)CCCCC1)c1ccc(=O)[nH]c1`, which “activation” value is on record?
A: inactive: 33.8%

Q: For `CC(C)(C)OC(=O)N1CCC(N(C(=O)c2ccccc2)c2ccc(F)cc2)CC1`, which “activation” value is on record?
A: inactive: -36.4%

Q: With `COc1ccc(C(=O)NCC2(N3CCCCC3)CCCCC2)c(OC)c1OC` as the compound, how does the “activation” value read?
A: inactive: -6.79%

Q: For `COc1ccc(C(=O)NCC2(N3CCCCC3)CCCCC2)cc1`, which “activation” value is on record?
A: inactive: 8.22%

Q: For `CCCOc1ccc(C(=O)NCC2(N(C)C)CCCCC2)cc1OC`, which “activation” value is on record?
A: inactive: -31.3%

Q: For `Cc1ccc(C(=O)NCC2(N(C)C)CCCCC2)o1`, which “activation” value is on record?
A: inactive: 11.7%

Q: With `O=[N+]([O-])c1cc([N+](=O)[O-])c(Nc2ccc(Cl)cc2)c([N+](=O)[O-])c1` as the compound, how does the “activation” value read?
A: inactive: -64.8%

Q: With `CN1CCC(Nc2cccc(F)c2)CC1` as the compound, how does the “activation” value read?
A: inactive: -16.6%

Q: For `COc1ccc2c(c1O)-c1c(O)c(OC)cc3c1[C@H](C2)[N+](C)(C)CC3.O=[N+]([O-])c1cc([N+](=O)[O-])c([O-])c([N+](=O)[O-])c1[O-]`, which “activation” value is on record?
A: inactive: 9.16%

Q: With `O=C(NCC1(N2CCCCC2)CCCCC1)c1cncc(Br)c1` as the compound, how does the “activation” value read?
A: inactive: 15.8%

Q: With `O=C(OC1CN2CCC1CC2)c1ccc([N+](=O)[O-])cc1` (stereo not drawn) as the compound, how does the “activation” value read?
A: inactive: 2.84%

Q: With `O=C(NCC1(N2CCOCC2)CCCCC1)c1cc(F)c(F)cc1Cl` as the compound, how does the “activation” value read?
A: inactive: -0.958%

Q: With `COc1cc(OC)c(C(=O)NCC2(N(C)C)CCCCC2)cc1OC` as the compound, how does the “activation” value read?
A: inactive: -25.5%

Q: With `CN(C)c1cccc(C(=O)NCC2(N3CCCCC3)CCCCC2)c1` as the compound, how does the “activation” value read?
A: inactive: 0%

Q: For `O=[N+]([O-])c1cc([N+](=O)[O-])c(OC2CCCCC2O)c([N+](=O)[O-])c1` (stereo not drawn), which “activation” value is on record?
A: inactive: 8.37%

Q: Which “activation” value does the source give for `COc1ccc(CN(CCCl)CCCl)cc1Cl` here?
A: inactive: 11.1%

Q: With `CC(C)c1ccc(NC2CCN(C(=O)OC(C)(C)C)CC2)cc1` as the compound, how does the “activation” value read?
A: inactive: -27.9%

Q: For `CC(C)c1ccc(C(=O)NCC2(N3CCOCC3)CCCCC2)cc1`, which “activation” value is on record?
A: inactive: 27.4%

Q: With `COc1ccc(NC2CCN(C(=O)OC(C)(C)C)CC2)cc1` as the compound, how does the “activation” value read?
A: inactive: -3.96%

Q: For `CN1CCN(CCOC(=O)C(O)(c2ccccc2)c2ccccc2)CC1`, which “activation” value is on record?
A: inactive: 1.95%

Q: For `O=C(NCC1(N2CCOCC2)CCCCC1)c1cc(=O)[nH]c2ccccc12`, which “activation” value is on record?
A: inactive: -12.7%

Q: Which “activation” value does the source give for `COc1cc(C(=O)NCC2(N3CCCCC3)CCCCC2)ccc1OC(F)F` here?
A: inactive: -48.9%

Q: Which “activation” value does the source give for `O=C(NCC1(N2CCCCC2)CCCCC1)c1cccc(C(F)(F)F)c1` here?
A: inactive: -9.62%

Q: For `O=[N+]([O-])c1cc([N+](=O)[O-])c(NCC2CCS(=O)(=O)C2)c([N+](=O)[O-])c1` (stereo not drawn), which “activation” value is on record?
A: inactive: -2.51%

Q: Which “activation” value does the source give for `CSc1ccc(C(=O)NCC2(N3CCOCC3)CCCCC2)cc1` here?
A: inactive: 27.4%

Q: With `O=C(NCC1(N2CCCCC2)CCCCC1)c1cccc([N+](=O)[O-])c1` as the compound, how does the “activation” value read?
A: inactive: -3.55%

Q: With `N#CC1(Nc2ccccc2)CCN(CCc2ccccc2)CC1` as the compound, how does the “activation” value read?
A: inactive: 12.7%

Q: Which “activation” value does the source give for `CCN1CCC(Nc2ccc(Cl)cc2)CC1` here?
A: inactive: 12.4%

Q: For `O=C(NCC1(N2CCCCC2)CCCCC1)c1ccc(OC(F)F)cc1`, which “activation” value is on record?
A: inactive: -13%

Q: With `Cc1cc(N(CCCl)CCCl)ccc1C=O` as the compound, how does the “activation” value read?
A: inactive: 15.5%

Q: For `CCCN1CCC(Nc2cc(OC)cc(OC)c2)CC1`, which “activation” value is on record?
A: inactive: -60.8%

Q: For `c1ccc(CN2CCC(Nc3ccccc3)CC2)cc1`, which “activation” value is on record?
A: inactive: 13.6%

Q: For `CN(C)C1(CNC(=O)c2cccc(C#N)c2)CCCCC1`, which “activation” value is on record?
A: inactive: 50.8%

Q: For `CCOC(=O)C(CC)C1=NC(C)(C)Cc2ccccc21.O=[N+]([O-])c1cc([N+](=O)[O-])c(O)c([N+](=O)[O-])c1` (stereo not drawn), which “activation” value is on record?
A: inactive: -16.6%

Q: Which “activation” value does the source give for `CC(C)(C)OC(=O)N1CCC(N(C(=O)c2ccccc2)c2ccc(Cl)cc2)CC1` here?
A: inactive: 19.3%

Q: For `N#Cc1ccc(C(=O)NCC2(N3CCCCC3)CCCCC2)cc1`, which “activation” value is on record?
A: inactive: -12.6%

Q: Which “activation” value does the source give for `O=C(O)c1cccc(Nc2c([N+](=O)[O-])cc([N+](=O)[O-])cc2[N+](=O)[O-])c1` here?
A: inactive: -4.33%

Q: With `CCc1cc(C(=O)NCC2(N3CCCCC3)CCCCC2)sc1C` as the compound, how does the “activation” value read?
A: inactive: -16%

Q: For `O=C(OC1CN2CCC1CC2)C1c2ccccc2C=Cc2ccccc21` (stereo not drawn), which “activation” value is on record?
A: inactive: -6.5%

Q: For `N/C(=N\O)c1c(N)no[n+]1[O-]`, which “activation” value is on record?
A: inactive: -3.36%

Q: With `CCOC(=O)N1CCC(Nc2ccc(C)cc2)CC1` as the compound, how does the “activation” value read?
A: inactive: -25.3%

Q: Which “activation” value does the source give for `COc1ccc(C(=O)NCC2(N3CCOCC3)CCCCC2)cc1OC` here?
A: inactive: 26.6%

Q: With `O=C(NCC1(N2CCOCC2)CCCCC1)c1cc(Br)ccc1Cl` as the compound, how does the Potency read?
A: active: 8.91 µM

Q: For `COc1cc(C(=O)NCC2(N3CCOCC3)CCCCC2)cc(OC)c1C`, which “activation” value is on record?
A: inactive: 1.19%

Q: With `CN1CCC(Nc2ccc(Cl)cc2)CC1` as the compound, how does the “activation” value read?
A: inactive: -0.361%

Q: For `CCC(CO)(C(=O)OC1CN2CCC1CC2)c1ccccc1` (stereo not drawn), which “activation” value is on record?
A: inactive: 18.2%

Q: For `COc1cccc(C(=O)N(c2cc(C)cc(C)c2)C2CCN(C(=O)OC(C)(C)C)CC2)c1`, which “activation” value is on record?
A: inactive: 1.26%

Q: Which “activation” value does the source give for `COc1cc(OC)cc(C(=O)NCC2(N3CCOCC3)CCCCC2)c1` here?
A: inactive: 6.52%

Q: Which “activation” value does the source give for `CCCOc1ccc(C(=O)NCC2(N(C)C)CCCCC2)cc1` here?
A: inactive: -14.1%

Q: Which “activation” value does the source give for `O=C(O)C1(Nc2ccccc2)CCN(Cc2ccccc2)CC1` here?
A: inactive: -1.75%

Q: With `CC(C)(C)OC(=O)N1CCC(Nc2ccccc2)CC1` as the compound, how does the “activation” value read?
A: inactive: 4.63%

Q: With `CN1CCC(Nc2ccc(F)c(Cl)c2)CC1` as the compound, how does the “activation” value read?
A: inactive: -2.78%

Q: Which “activation” value does the source give for `CCOc1ncccc1C(=O)NCC1(N2CCOCC2)CCCCC1` here?
A: inactive: -21.3%

Q: For `CN(C)c1ccc(C(=O)NCC2(N3CCCCC3)CCCCC2)cc1`, which “activation” value is on record?
A: inactive: 29.2%

Q: For `Cn1c(=O)[nH]cc(N(CCCl)CCCl)c1=O`, which “activation” value is on record?
A: inactive: -0.83%

Q: For `CCN1CCC(Nc2cccc(F)c2)CC1`, which “activation” value is on record?
A: inactive: 9.69%

Q: For `Cc1ccccc1NC1(C#N)CCN(Cc2ccccc2)CC1`, which “activation” value is on record?
A: inactive: 2.71%

Q: Which “activation” value does the source give for `Cc1ccc(NC2(C#N)CCN(Cc3ccccc3)CC2)cc1` here?
A: inactive: 9.07%

Q: For `Fc1ccccc1NC1CCN(Cc2ccccc2)CC1`, which “activation” value is on record?
A: inactive: -14.6%

Q: For `Cc1ccc(Nc2c([N+](=O)[O-])cc([N+](=O)[O-])cc2[N+](=O)[O-])cc1`, which “activation” value is on record?
A: inactive: -64.2%

Q: With `Cc1ccc(C(=O)NCC2(N3CCCCC3)CCCCC2)o1` as the compound, how does the “activation” value read?
A: inactive: 6.56%

Q: Which “activation” value does the source give for `COc1cc(OC)cc(C(=O)NCC2(N3CCCCC3)CCCCC2)c1` here?
A: inactive: 10.4%

Q: With `CC(=O)N(c1ccccc1)C1CCNCC1` as the compound, how does the “activation” value read?
A: inactive: 17.4%
